# Measurements published in PubChem BioAssay AID588456 (National Center for Advancing Translational Sciences (NCATS), 2011).
# Sequences of proteins named here, by UniProt entry; tags and fusion partners are left off.
# UniProt O89049, whole entry, looked up: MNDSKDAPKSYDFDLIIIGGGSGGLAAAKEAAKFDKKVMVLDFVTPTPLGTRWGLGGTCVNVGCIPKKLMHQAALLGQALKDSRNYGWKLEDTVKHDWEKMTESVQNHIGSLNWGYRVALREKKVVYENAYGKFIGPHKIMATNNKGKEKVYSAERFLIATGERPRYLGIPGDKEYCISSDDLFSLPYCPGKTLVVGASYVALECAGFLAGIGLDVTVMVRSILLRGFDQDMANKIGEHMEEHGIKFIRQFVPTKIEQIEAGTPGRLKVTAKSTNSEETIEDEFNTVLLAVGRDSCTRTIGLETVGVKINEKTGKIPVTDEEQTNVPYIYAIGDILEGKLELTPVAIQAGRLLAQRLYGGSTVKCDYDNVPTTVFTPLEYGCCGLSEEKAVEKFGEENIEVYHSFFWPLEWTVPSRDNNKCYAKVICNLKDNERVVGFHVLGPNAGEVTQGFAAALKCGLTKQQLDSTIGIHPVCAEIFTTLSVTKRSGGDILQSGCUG
# The entries are a selection whose mix differs from that of the whole data set. Active and inactive are the calls of the source. Calls follow the shape of the dose curve; as a rule, active = well fitted inhibition curve with a large enough effect; inconclusive = small, poorly fitted or top-dose-only effect; inactive = no such curve, though single readings can be large or run the other way.
# Target: Thioredoxin reductase 1, cytoplasmic (Rattus norvegicus) (UniProt O89049)
# Experiment: qHTS Assay for Substrates of Mammalian Selenoprotein Thioredoxin Reductase 1 (TrxR1): qHTS; also: nearly all actives have a fitted effect of over 50% in size
# Settings: purified TrxR1 substrate turnover, NADPH consumption readout; at 114 µM (top of the series) unless noted
# % is scaled to controls: 0 for no effect and ±100 for the full control effect.
row,Compound,"activity change, negative = substrate turnover"
1,COC(=O)c1cc2c(s1)N=C(c1ccccc1)N(C)P2(=O)N1CCOCC1 (configuration not stated),inactive: 7.55% [at 57.1 µM]
2,Cc1ccc(OP(=O)(Nc2ccccn2)Oc2ccc(C)cc2)cc1,inactive: -5.09% [at 57.1 µM]
3,CC(=O)NC(SC(=S)N(CC(C)C)CC(C)C)C(Cl)(Cl)Cl (configuration not stated),inactive: -5.85%
4,CN(C(=O)Cc1ccc(Cl)c(Cl)c1)[C@@H]1CCCC[C@@H]1N1CCCC1,inactive: 5.85% [at 57.1 µM]
5,O=C(OC1CN2CCC1CC2)c1ccccc1 (configuration not stated),inactive: 6.86% [at 57.1 µM]
6,CCC(=O)N1C2C3N(C(=O)CC)C1C1N(C(=O)CC)C(C(N1C(=O)CC)N3C(=O)CC)N2C(=O)CC,inactive: 0.961%
7,O=P(Nc1nc2ccccc2s1)(c1ccccc1)c1ccccc1,inactive: 5.64%
8,C[C@H]1OP(=O)(Oc2ccccc2)[C@H](O)[C@H](O)[C@H]1N=[N+]=[N-] (some centres not stated),inactive: -3.85% [at 57.1 µM]
9,COc1ccc(N)c([N+](=O)[O-])c1[N+](=O)[O-],inactive: 1.38%
10,O=P(Nc1ccccn1)(c1ccc(Br)cc1)c1ccc(Br)cc1,inactive: 3.31%
11,CN(C)C1(CNC(=O)c2ccc(Cl)c(S(N)(=O)=O)c2)CCCCC1,inactive: 10.7% [at 57.1 µM]
12,C(Cc1nn[nH]n1)Cc1nn[nH]n1,inactive: 1.34%
13,Nc1ccc([As](=O)(O)c2ccc([N+](=O)[O-])cc2)cc1,inactive: -0.118%
14,O=C(OC1CN2CCC1CC2)c1cccc(Cl)c1 (configuration not stated),inactive: 7.12% [at 57.1 µM]
15,O=[N+]([O-])c1ccc(O)c(/C=N/Nc2ccc([N+](=O)[O-])cc2[N+](=O)[O-])c1,inactive: -7.61%
16,O=[N+]([O-])c1ncn(CCn2cnc([N+](=O)[O-])n2)n1,inactive: -0.668%
17,CC(=O)NC(SC(=S)N(C)C)C(Cl)(Cl)Cl (configuration not stated),inactive: 11%
18,O=[As](O)(c1ccccc1)c1ccc(O)cc1,inactive: 6.79%
19,c1nnnn1CCn1cnnn1,inactive: 0.136%
20,CC(C)C(=O)NC(Sc1ccccc1)C(Cl)(Cl)Cl (configuration not stated),inactive: -20.5% [at 57.1 µM]
21,O=P(Nc1nccs1)(c1ccccc1)c1ccccc1,inactive: 2.59%
22,COc1cccc([N+](=O)[O-])c1[N+](=O)[O-],inactive: 5.82%
